Laboratory results taken from IntAct's records for PubMed 21111234.

B1: Sororin (Homo sapiens), Q96FF9 (parent)
chain: MSGRRTRSGGAAQRSGPRAPSPTKPLRRSQRKSGSELPSILPEIWPKTPSAAAVRKPIVLKRIVAHAVEVPAVQSPRRSPRISFFLEKENEPPGRELTKEDLFKTHSVPATPTSTPVPNPEAESSSKEGELDARDLEMSKKVRRSYSRLETLGSASTSTPGRRSCFGFEGLLGAEDLSGVSPVVCSKLTEVPRVCAKPWAPDMTLPGISPPPEKQKRKKKKMPEILKTELDEWAAAMNAEFEAAEQFDLLVE
partner: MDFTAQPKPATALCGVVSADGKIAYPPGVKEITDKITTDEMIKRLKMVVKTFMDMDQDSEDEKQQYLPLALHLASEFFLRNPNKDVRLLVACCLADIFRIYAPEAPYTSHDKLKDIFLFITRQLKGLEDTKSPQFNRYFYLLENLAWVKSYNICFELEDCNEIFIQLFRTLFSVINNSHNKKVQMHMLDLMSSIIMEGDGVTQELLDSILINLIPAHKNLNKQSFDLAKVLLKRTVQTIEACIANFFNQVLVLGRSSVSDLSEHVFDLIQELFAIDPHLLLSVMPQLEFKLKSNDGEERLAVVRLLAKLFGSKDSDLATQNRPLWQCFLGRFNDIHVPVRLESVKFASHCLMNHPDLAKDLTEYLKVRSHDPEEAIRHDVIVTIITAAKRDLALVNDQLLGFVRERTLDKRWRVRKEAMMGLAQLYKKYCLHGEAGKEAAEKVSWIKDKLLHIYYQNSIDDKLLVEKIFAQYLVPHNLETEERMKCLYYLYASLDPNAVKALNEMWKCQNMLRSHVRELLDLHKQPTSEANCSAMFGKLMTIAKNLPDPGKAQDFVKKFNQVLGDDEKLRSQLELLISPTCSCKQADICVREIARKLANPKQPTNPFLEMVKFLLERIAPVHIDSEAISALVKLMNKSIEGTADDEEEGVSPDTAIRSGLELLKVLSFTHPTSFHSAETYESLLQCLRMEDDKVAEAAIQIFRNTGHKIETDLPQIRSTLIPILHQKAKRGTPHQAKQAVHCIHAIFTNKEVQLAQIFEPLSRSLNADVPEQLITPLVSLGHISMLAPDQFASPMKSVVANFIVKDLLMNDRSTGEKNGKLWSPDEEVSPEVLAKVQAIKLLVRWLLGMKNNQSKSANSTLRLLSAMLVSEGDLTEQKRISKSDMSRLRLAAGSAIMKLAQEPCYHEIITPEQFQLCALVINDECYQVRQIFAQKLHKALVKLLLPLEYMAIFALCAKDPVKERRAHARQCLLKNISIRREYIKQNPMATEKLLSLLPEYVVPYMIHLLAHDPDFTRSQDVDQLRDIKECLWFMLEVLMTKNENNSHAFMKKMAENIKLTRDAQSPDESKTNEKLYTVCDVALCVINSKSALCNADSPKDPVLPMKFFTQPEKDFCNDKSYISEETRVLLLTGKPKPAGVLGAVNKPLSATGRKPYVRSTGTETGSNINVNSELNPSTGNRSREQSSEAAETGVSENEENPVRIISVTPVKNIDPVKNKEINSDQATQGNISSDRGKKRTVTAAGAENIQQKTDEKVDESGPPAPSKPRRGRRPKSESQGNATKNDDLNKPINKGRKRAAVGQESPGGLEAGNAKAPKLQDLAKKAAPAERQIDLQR

Variants of: B1
Settings: with pds5a_human PDS5A

| effect of a mutation on the interaction | Variant |
| --- | --- |
| decreasing interaction | MSGRRTRSGGAAQRSGPRAPSPTKPLRRSQRKSGSELPSILPEIWPKTPSAAAVRKPIVLKRIVAHAVEVPAVQSPRRSPRISFFLEKENEPPGRELTKEDLFKTHSVPATPTSTPVPNPEAESSSKEGELDARDLEMSKKVRRSYSRLETLGSASTSTPGRRSCAGAEGLLGAEDLSGVSPVVCSKLTEVPRVCAKPWAPDMTLPGISPPPEKQKRKKKKMPEILKTELDEWAAAMNAEFEAAEQFDLLVE [F166A;F168A] |
